Results on 1 compound are retold here after ChEMBL document CHEMBL5131394, “Structure-activity and mechanistic studies of non-peptidic inhibitors of the PLK1 polo box domain identified through REPLACE” (Eur J Med Chem, 2022).

What all share (type): functional
Test [1] can be described thus: Downregulation of PLK1 in serum starved human PC-3 cell assessed as fold change in PLK1 gene expression at 15 uM and measured after 24 hrs by NanoDrop spectophotometry relative to control.
Test [2] is described as follows: Downregulation of Aurora kinase A in serum starved human PC-3 cell assessed as fold change in Aurora kinase A gene expression at 15 uM and measured after 24 hrs by NanoDrop spectophotometry relative to control.
Test [3] in a line: Downregulation of cyclin B1 in serum starved human PC-3 cell assessed as fold change in cyclin B1 gene expression at 15 uM and measured after 24 hrs by NanoDrop spectophotometry relative to control.
Test [4] is described as follows: Downregulation of cdc20 in serum starved human PC-3 cell assessed as fold change in cdc20 gene expression at 15 uM and measured after 24 hrs by NanoDrop spectophotometry relative to control.
Test [5] is described as follows: Downregulation of cdcA2 in serum starved human PC-3 cell assessed as fold change in cdcA2 gene expression at 15 uM and measured after 24 hrs by NanoDrop spectophotometry relative to control.
Test [6] can be described thus: Downregulation of cdc27 in serum starved human PC-3 cell assessed as fold change in cdc27 gene expression at 15 uM and measured after 24 hrs by NanoDrop spectophotometry relative to control.
Test [7] is described as follows: Downregulation of cdcA3 in serum starved human PC-3 cell assessed as fold change in cdcA3 gene expression at 15 uM and measured after 24 hrs by NanoDrop spectophotometry relative to control.
Test [8] in a line: Downregulation of histone H2BM in serum starved human PC-3 cell assessed as fold change in histone H2BM gene expression at 15 uM and measured after 24 hrs by NanoDrop spectophotometry relative to control.

Turning to `CCCCCCCCc1ccc(C(=O)Nc2ccc(C)cc2C(=O)O)cc1`, the “fold change (FC)” value was 1.86 in test [1]; 2.53 in test [2]; 2.34 in test [3]; 2.14 in test [4]; 1.6 in test [5]; 2.05 in test [6]. For the same compound, the “fold change (FC)” value in test [7] came out at 2.73; in test [8], 4.16.
